# scFv variants of Ab-14 (heavy chain) against a SARS-CoV-2 spike peptide

Target peptide (SARS-CoV-2 spike, HR2 region): PDVDLGDISGINAS

Each scFv is VH, a (GGGGS)3 linker, VL, as in the parent Ab-14, and differs from it in the CDRs of the heavy chain only.
VH: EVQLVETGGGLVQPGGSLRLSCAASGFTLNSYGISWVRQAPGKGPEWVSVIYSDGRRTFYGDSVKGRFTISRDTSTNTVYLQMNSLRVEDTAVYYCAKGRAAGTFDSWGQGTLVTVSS
VL: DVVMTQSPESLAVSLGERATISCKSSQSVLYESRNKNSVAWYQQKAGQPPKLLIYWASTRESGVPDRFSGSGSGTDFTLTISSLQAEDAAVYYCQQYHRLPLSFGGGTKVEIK

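The starting antibody came from a phage panning campaign against this peptide. Library AAYL49 holds single substitutions and randomly drawn double and triple substitutions in the CDRs. The scFvs were displayed on barcoded MATa yeast, the peptide on MATalpha yeast. Mating (16 h, 30 °C) was followed by selection of diploids and sequencing of their barcodes. A regression on co-assayed BCL2-family reference pairs converts the normalised counts of each replicate to an apparent Kd. Each pool was mated in three replicate cultures.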

Changes read parent residue, position, new residue, counted from the first residue of the VH shown. Numbers give log10(Kd / nM), so 0 is 1 nM and 3 is 1 µM. Smaller is tighter. Replicates are averaged; those with no signal do not enter the mean. Where no diploid with the target was found in that replicate, the entry reads "n.d.": below detection, most likely a poor binder, though not proof of it. Background: pairings of library AAYL49 with three empty control strains gave a value in 15% of cases (median 4.06, 5th percentile 2.83). Values in that range, when seen in few replicates, are hard to tell from nonspecific mating. For each scFv, signals with the empty controls are counted beside the result, with their mean in brackets.

{"changes": "G33P V64I A102K", "replicates, log10 nM": "n.d. / n.d. / n.d.", "mean, log10 nM": "n.d.", "control signals": "0/9"}
{"changes": "T28L L29P V50P", "replicates, log10 nM": "n.d. / n.d. / n.d.", "mean, log10 nM": "n.d.", "control signals": "0/9"}
{"changes": "S31K R56Q Y60K", "replicates, log10 nM": "n.d. / n.d. / 5.61", "mean, log10 nM": "5.61", "control signals": "3/9 (4.43)"}
{"changes": "I34D K65V D106S", "replicates, log10 nM": "5.20 / 4.38 / n.d.", "mean, log10 nM": "4.79", "control signals": "6/9 (4.19)"}
{"changes": "R57C T104D D106P", "replicates, log10 nM": "n.d. / 3.98 / n.d.", "mean, log10 nM": "3.98", "control signals": "3/9 (3.97)"}
{"changes": "F27L L29V Y60Q", "replicates, log10 nM": "n.d. / n.d. / n.d.", "mean, log10 nM": "n.d.", "control signals": "0/9"}
{"changes": "T28S Y52M G103H", "replicates, log10 nM": "n.d. / 3.62 / n.d.", "mean, log10 nM": "3.62", "control signals": "3/9 (4.00)"}
{"changes": "Y32W G103H F105E", "replicates, log10 nM": "4.41 / n.d. / n.d.", "mean, log10 nM": "4.41", "control signals": "1/9 (4.74)"}
{"changes": "G55I G103F D106H", "replicates, log10 nM": "n.d. / 5.64 / 4.97", "mean, log10 nM": "5.30", "control signals": "5/9 (4.31)"}
{"changes": "S31R S53G S107C", "replicates, log10 nM": "4.69 / 5.87 / 5.73", "mean, log10 nM": "5.43", "control signals": "6/9 (4.39)"}
{"changes": "D54H", "replicates, log10 nM": "n.d. / n.d. / n.d.", "mean, log10 nM": "n.d.", "control signals": "0/9"}
{"changes": "Y32C V64I A102Q", "replicates, log10 nM": "n.d. / 3.29 / n.d.", "mean, log10 nM": "3.29", "control signals": "1/9 (3.58)"}
{"changes": "N30M R100A", "replicates, log10 nM": "1.10 / 1.13 / 1.26", "mean, log10 nM": "1.16", "control signals": "1/9 (4.92)"}
{"changes": "S35A G61T S63V", "replicates, log10 nM": "n.d. / n.d. / n.d.", "mean, log10 nM": "n.d.", "control signals": "3/9 (3.61)"}
{"changes": "K65G F105E", "replicates, log10 nM": "2.57 / 3.34 / 2.69", "mean, log10 nM": "2.87", "control signals": "0/9"}
{"changes": "V50H D54H F59N", "replicates, log10 nM": "n.d. / n.d. / 3.24", "mean, log10 nM": "3.24", "control signals": "0/9"}
{"changes": "L29F D54A", "replicates, log10 nM": "3.77 / n.d. / n.d.", "mean, log10 nM": "3.77", "control signals": "4/9 (3.98)"}
{"changes": "G26K V50M D54Y", "replicates, log10 nM": "n.d. / n.d. / n.d.", "mean, log10 nM": "n.d.", "control signals": "0/9"}
{"changes": "R57L S107M", "replicates, log10 nM": "n.d. / n.d. / n.d.", "mean, log10 nM": "n.d.", "control signals": "0/9"}
{"changes": "G26W V50S A101T", "replicates, log10 nM": "n.d. / 3.69 / n.d.", "mean, log10 nM": "3.69", "control signals": "3/9 (3.13)"}

A selection of 2 entries from above:

{"changes": "G26W V50S A101T", "replicates, log10 nM": "n.d. / 3.69 / n.d.", "mean, log10 nM": "3.69", "control signals": "3/9 (3.13)"}
{"changes": "G33P V64I A102K", "replicates, log10 nM": "n.d. / n.d. / n.d.", "mean, log10 nM": "n.d.", "control signals": "0/9"}

Data: MIT Lincoln Laboratory AlphaSeq set, Engelhart et al. 2022, doi:10.1038/s41597-022-01779-4, as distributed in FLAb.